One substance from US10947271B2, “Antibacterial agents” (THE UNIVERSITY OF QUEENSLAND, priority 2014, dated 2021) can be followed below.

The data set is described as follows: Stability of compounds in human plasma. Particulars: 50% human plasma/PBS pH 7.4, 37° C. On the procedure: Briefly test compounds (20 μM) were prepared from a 1 mM stock solution. The human plasma sample (200 μl) was diluted with 160 μl phosphate-buffer saline (PBS, pH 7.4) to a concentration of 50% v/v before use. Solutions were then vortexed and placed on a 37° C. shaker and shaken gently for 10 minutes. 40 μl of the test compounds were then added to the plasma sample and vortexed. For the reaction time t=0 hour, 50 μl of sample was immediately transferred into an eppendorf tube and quenched with 150 μl cold acetonitrile. The remaining plasma solution was incubated and shaken at 37° C. Other samples were collected at time points of 0, 1, 3, 6 and 24 hours whereby 50 μl aliquots were removed and quenched with 150 μl cold acetonitrile. All samples were placed in a 4° C. fridge for 10 minutes then centrifuged at 3000 rpm for 15 minutes. The supernatant (100 μl) was transferred to a glass vial insert for LCMS analysis. The percentage of test compounds remaining at the individual time points relative to sample at time point 0 hour were reported.
Plasma: Human Plasma (Pooled Normal Human Plasma Heparin Anticoagulant 50 mL (IPLA-2 N-04 lot IR09-1001, originally from Innovative Research and imported by BioCore).
All compounds in 100% water (40 μL in 400 μL assay volume equivalent […])
Compounds: 40 μL of the vancomycin derivative solution was added to 160 μL of PBS (pH 7.4) respectively in an Eppendorf tube. 600 μL of cold acetonitrile was added, the tube vortexed and transferred to a glass vial for LC-MS analysis.
Eucatropine: 200 μL of plasma and 190 μL of buffer were vortexed, shaken at 37° C. for 10 minutes. 10 μL of eucatropine solution was then added and the tube vortexed. A 50 μL aliquot was immediately transferred to an Eppendorf tube, 150 μL of cold acetonitrile added and the tube transferred to a 4° C. fridge for 10 minutes. The remaining plasma solution was then transferred to the incubator and shaken at 37° C. The tube was retrieved from the fridge, centrifuged at 3000 rpm for 15 min and 100 μL of supernatant transferred to a glass vial insert for LC-MS analysis. 50 μL aliquots were processed as above at 1, […], 3, 6 and 24 hours and 5 μL was injected into triple quad MS system for analysis. Vancomycin derivatives: 200 μL of plasma and 160 μL of buffer were vortexed and shaken at 37° C. for 10 minutes. 40 μL of compound was then added and the sample was processed as above.

As to “nC13CO-GSKKKC(SEtNH-Vanc)-OH [MCC_000199, reference compound]”, the “% compound remaining after incubation in 50% human plasma” value stood at 100% (0 h (reference time point)), 119% (1 h), 82% (6 h) and 18% (24 h).
